Assay results from BindingDB's records for doi:10.1016/s0014-2999(98)00241-6 (Mcgill University, 1998).

Sequences of proteins named here, by UniProt entry; tags and fusion partners are left off.
UniProt P31652, whole entry: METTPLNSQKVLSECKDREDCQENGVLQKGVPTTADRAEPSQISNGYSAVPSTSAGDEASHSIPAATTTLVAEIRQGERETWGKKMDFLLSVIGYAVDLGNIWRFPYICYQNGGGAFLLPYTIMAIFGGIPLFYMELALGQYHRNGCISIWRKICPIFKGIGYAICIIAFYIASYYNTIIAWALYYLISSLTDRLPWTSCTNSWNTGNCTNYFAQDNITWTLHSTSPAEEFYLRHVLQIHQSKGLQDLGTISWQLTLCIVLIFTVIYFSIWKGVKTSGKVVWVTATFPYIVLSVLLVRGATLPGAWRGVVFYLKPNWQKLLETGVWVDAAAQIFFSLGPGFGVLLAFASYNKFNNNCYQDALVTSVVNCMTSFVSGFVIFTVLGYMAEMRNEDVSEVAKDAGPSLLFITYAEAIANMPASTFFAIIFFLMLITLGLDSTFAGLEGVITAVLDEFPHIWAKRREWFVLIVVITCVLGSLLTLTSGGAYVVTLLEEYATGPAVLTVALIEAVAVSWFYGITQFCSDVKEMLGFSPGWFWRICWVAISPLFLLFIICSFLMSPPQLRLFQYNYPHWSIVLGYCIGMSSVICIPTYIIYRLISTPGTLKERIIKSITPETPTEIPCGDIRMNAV

Columns and labels:
[1] = molecular target: Norepinephrine transporter (Rattus norvegicus, UniProt Q9JIA2)
[2] = molecular target: Sodium-dependent serotonin transporter (Rattus norvegicus, UniProt P31652)

Compound: CNCC[C@H](Oc1cccc2ccccc12)c1cccs1 [DULOXETINE]
- Ki [1]: 3 nM

Compound: Fc1ccc([C@@H]2CCNC[C@H]2COc2ccc3c(c2)OCO3)cc1 [PAROXETINE]
- Ki [2]: 0.04 nM

Compound: COc1ccc(C(CN(C)C)C2(O)CCCCC2)cc1 (stereo not drawn) [NSC_62923]
- Ki [1]: 1260 nM
